Values quoted from earlier work in article PMC10860182 (ACS Medicinal Chemistry Letters, 2024).

System: 5-HT2C
Conditions: literature value ref 37, cited from earlier work

## COc1ccc2[nH]cc(CCN(C)C)c2c1 [Compound 5-MeO-DMT, 5-methoxy-N,N-dimethyltryptamine]
  5-HT2C % Max: 84%
  5-HT2C pEC50: 7.44
read-out: 5-HT2C EC50
  EC50: 30.7 nM
